Measurements reported in publication PMC8699518 (Biomolecules, 2021).
One block for each binder: values may come before it.

By UniProt entry, the sequences of proteins in these tests, tags left out. Residues count along the entry.
UniProt P01574, 22-187: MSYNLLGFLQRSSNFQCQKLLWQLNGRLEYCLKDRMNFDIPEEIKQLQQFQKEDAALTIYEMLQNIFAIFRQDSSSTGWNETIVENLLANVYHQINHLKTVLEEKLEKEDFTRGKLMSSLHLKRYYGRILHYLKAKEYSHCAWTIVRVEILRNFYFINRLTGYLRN

Columns and labels:
[1] = molecular target: T1, recombinant glycosylated IFN-β (Pharmapark, Moscow, Russia) (Homo sapiens, UniProt P01574, glycosylated); assay: ELISA; Kd by the method of Friguet with the Klotz equation; recombinant antibody and IFN-β in solution at equilibrium, free antibody measured by ELISA; conditions: both partners purified
T1 construct: human interferon beta, glycosylated form (IFN-β-1a); also called IFN-β-1a; IFNβ-1a; source: bought: Pharmapark

[2] = molecular target: T1, recombinant glycosylated IFN-β …; assay: cell-based or functional assay

Kd [1]: 3.3 nM
B1: humanized B16 antibody (antibody, V domains shown)
VH: EVQLVESGGGLVQPGGSLRLSCAASGFTFTSYTMSWVRQAPGKGLEWVSYISNGGGSTYYPDTVKGRFTISRDNSKNTLYLQMNSLRAEDTAVYYCAKLDWVFAYWGQGTLVTVSS
VL: DIQLTQSPSFLSASVGDRVTITCKASQDVGTAVAWYQQKPGKAPKLLIYWASTRHTGVPSRFSGSGSGTEFTLTISSLQPEDFATYYCLQYSSFPYTFGQGTKLEIK

IC50 of the inhibition of the antiproliferative effect of IFN-β (100 pg/mL) on HT29 cells with 0.5 × 10^6 PBMC/mL, MTT; antibody 0.5–100 μg/mL [2]: 21.8 µg/mL
Kd [1]: 3.2 nM
B2: chimeric antibody B16 (antibody, V domains shown)
VH: EVKLVESGGGLVQPGGSLKLSCAASGFTFTSYTMSWVRQTPEKRLEWVAYISNGGGSTYYPDTVKGRFTISRDNAKNTLYLQMSSLKSEDTAMYYCARLDWVFAYWGQGTLVTVSA
VL: DIVMTQSHKFMSTSVGDRVSITCKASQDVGTAVAWYQQKPGQSPKLLIYWASTRHTGVPDRFTGSGSGTDFTLTISNVQSEDLADYFCLQYSSFPYTFGGGTKLEIK
